In this test the target is human MOR (Homo sapiens, UniProt P35372). The test is classed as cell-based.

The chains behind the UniProt entries cited, without tags or fusion partners.
UniProt P35372, whole entry: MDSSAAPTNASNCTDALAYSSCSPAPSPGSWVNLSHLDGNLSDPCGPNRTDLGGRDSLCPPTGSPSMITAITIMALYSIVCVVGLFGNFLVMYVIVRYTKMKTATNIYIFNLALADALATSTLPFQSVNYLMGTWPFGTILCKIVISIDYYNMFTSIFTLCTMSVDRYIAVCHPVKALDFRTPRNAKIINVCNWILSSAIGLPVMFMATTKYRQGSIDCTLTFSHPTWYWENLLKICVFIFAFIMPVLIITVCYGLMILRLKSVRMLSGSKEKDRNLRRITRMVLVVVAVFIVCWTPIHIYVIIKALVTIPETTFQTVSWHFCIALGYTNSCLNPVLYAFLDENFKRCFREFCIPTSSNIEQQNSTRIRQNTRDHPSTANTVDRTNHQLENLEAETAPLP

The record followed here is publication PMC9939367 (Acta Pharmaceutica Sinica. B, 2022).

SMILES strings stand for the structures.

Take `COc1ccc2c3c1O[C@H]1C(=O)CC[C@@]4(O)[C@@H](C2)N(C)CC[C@]314` [oxycodone, reference compound]: the “cAMP lgτ (operational efficacy, G-protein pathway)” value was 2.18.
